How the values were obtained:
[1] = Stability in simulated intestinal fluid (FaSSIF with porcine pancreatin), LC-MS; assay type: in vitro ADME; conditions: for SIF Half life, percentage in parentheses below the half-life: meaning of % not defined in the table
[2] = Stability in simulated gastric fluid (SGF with pepsin, pH 1.2), LC-MS; assay type: in vitro ADME
Procedure: SGF was prepared by dissolving 320 mg Pepsin (Sigma®, P6887, from Porcine Stomach Mucosa) in 100 mL Blank SGF and stirred at room temperature for 30 minutes. The solution was filtered through 0.45 μm membrane and aliquot and stored at −20° C.
Experimental compounds of interest (at a concentration of 20 μM) were incubated with pre-warmed SGF at 37° C. […] Quenched samples were stored at 4° C. until the end of the experiment and centrifuged at 4,000 rpm for 10 minutes. The supernatant were diluted 1:1 with deionized water and analyzed using LC-MS. Percentage remaining at each time point was calculated based on the peak area ratio (analyte over internal standard) relative to the initial level at time zero. Half-lives were calculated by fitting to a first-order exponential decay equation using GraphPad.

| Substance | SIF Half life [1] | SIF Half life, percentage in parentheses below the half-life [1] | SGF Half life [2] |
| --- | --- | --- | --- |
| Isovaleric acid-DTHFPCIKF-Lys[PEG11-Palm]-PRSKGCK-NH2 [compound 1] | <15 min | (1%) | <15 min |
| Isovaleric acid-DTHFPCIKF-Lys[PEG11-Palm]-PRSK-[SAR]-CK-NH2 [compound 2] | <15 min | (1%) | 26 min |

Source: patent US12234300B2 (priority 2018, dated 2025)
